In assay [1] the target is T1, Delta-type opioid receptor (Rattus norvegicus, UniProt P33533). Briefly: The compound was tested for the ability to displace opioid receptor delta specific radioligand [3H]DPDPE.
The target in assay [2] is T1, Delta-type opioid receptor. Briefly: The compound was tested for the ability to displace opioid receptor delta specific radioligand [3H]-DSLET.
The target of assay [3] is Mu-type opioid receptor (Rattus norvegicus, UniProt P33535). Briefly: The compound was tested for the ability to displace mu-receptor specific radioligand [3H]DAGO. The essentials:
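μ-selective [³H]DAGO displacement in rat brain membrane preparation, radioligand at 0.72 nM, 2 h incubation at 0 °C.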

Sequences of proteins named here, by UniProt entry; tags and fusion partners are left off.
UniProt P33533, whole entry: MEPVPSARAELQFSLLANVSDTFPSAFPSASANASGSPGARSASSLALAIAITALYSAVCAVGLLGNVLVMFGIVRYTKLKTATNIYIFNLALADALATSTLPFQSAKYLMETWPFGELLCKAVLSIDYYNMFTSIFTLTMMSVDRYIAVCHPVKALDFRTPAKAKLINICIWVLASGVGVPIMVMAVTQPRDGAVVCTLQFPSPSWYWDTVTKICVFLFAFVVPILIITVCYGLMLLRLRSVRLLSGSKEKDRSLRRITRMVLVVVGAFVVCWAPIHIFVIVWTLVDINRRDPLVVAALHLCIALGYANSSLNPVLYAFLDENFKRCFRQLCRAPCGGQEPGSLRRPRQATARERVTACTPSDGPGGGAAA
UniProt P33535, whole entry: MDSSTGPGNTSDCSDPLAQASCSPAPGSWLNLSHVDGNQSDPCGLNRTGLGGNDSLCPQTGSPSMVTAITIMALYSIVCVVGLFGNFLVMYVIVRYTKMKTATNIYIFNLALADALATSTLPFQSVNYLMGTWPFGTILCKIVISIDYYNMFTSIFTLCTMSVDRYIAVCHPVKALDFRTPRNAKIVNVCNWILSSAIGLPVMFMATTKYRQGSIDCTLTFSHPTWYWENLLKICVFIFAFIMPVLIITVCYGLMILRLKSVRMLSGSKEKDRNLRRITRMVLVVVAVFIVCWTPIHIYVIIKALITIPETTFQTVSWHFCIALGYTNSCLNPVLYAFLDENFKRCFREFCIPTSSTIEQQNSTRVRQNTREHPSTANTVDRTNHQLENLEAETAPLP

`N[C@@H](Cc1ccc(O)cc1)C(=O)N[C@@H]1CSSC2(CCCCC2)[C@H](C(=O)O)NC(=O)[C@H](Cc2ccccc2)NC(=O)CNC1=O`: the values for the Ki in assay [1], in assay [2] and in assay [3] were 0.63 nM, 2.3 nM and 20.9 nM, respectively.

For the origin of these results see ChEMBL document CHEMBL1124680, “Cyclic enkephalin analogues containing alpha-amino-beta-mercapto-beta,beta-pentamethylenepropionic acid at positions 2 or 5” (J Med Chem, 1989).
